Assay results: US20090092603A1, “EARLY DIAGNOSIS AND TREATMENT OF DRUG RESISTANCE IN MUC1-POSITIVE CANCER” (priority 2007, published 2009)

Assays:
[1] = tested on: BTRes1 and BTRes2 (BT474 cell pools that have acquired resistance to HERCEPTIN®); assay: Growth of HERCEPTIN resistant cell pools versus HERCEPTIN concentration, alone or with MUC1* disabling agents; assay type: cell-based
Method: Briefly, BT474 cells, and resistant cells (BTRes1 and BTRes2) were plated in 96 well plates at 10,000 cells/well, six wells per condition. […] Three days later, the remaining cells were counted using a hemocytometer.
BT474, BTRes1 and BTRes2 Cells were plated in 96 well plates at 10,000 cells/well, six wells/condition. […] One set of wells was left untreated. Three days later, cells were counted, and Percent Normalized Growth was calculated.
BT474 cells were transfected in triplicate with control siRNA (Santa Cruz Biotechnologies; sc-37007), and BTRes1 cells were transfected in triplicate with control or MUC1-specific siRNA (Santa Cruz Biotechnologies sc-35985). One microliter of 10 μM siRNA was added to 100 ul of OptiMEM medium (Invitrogen 22600134). Six microliters of HiPerfect reagent (Qiagen 301704) were then added to each tube. After vortexing, tubes were incubated at room temperature for 20 minutes. Meanwhile, cells were trypsinized, pelleted and resuspended in fresh RPMI without HERCEPTIN®. 5×10^5 cells in 2.3 ml RPMI were combined with the OptiMEM with siRNA/HiPerfect complexes and added to a well of a 6 well plate. Two days later, cells were re-transfected by the same method, and plated in 96 well plates, at 10,000 cells per well, five wells per condition. […] Three days later, cells were counted, and Percent Normalized Growth was calculated.

[2] = tested on: breast cancer cell line ZR-75-30; assay: ZR-75-30 growth with anti-MUC1* Fab and HERCEPTIN (FIG. 10B); assay type: cell-based; conditions: ZR-75-30, combination of anti-MUC1* Fab and HERCEPTIN®
[3] = tested on: cancer cell lines that expressed high levels of MUC1*; assay: HERCEPTIN effect on cell lines with intrinsically high MUC1*; assay type: cell-based; conditions: HERCEPTIN® alone
Source text: We also investigated whether cancer cells that intrinsically expressed high levels of MUC1* were resistant to certain drugs. […] MUC1* may also be disabled by binding agents to its intracellular tail such that interactions with signaling proteins are clocked.

[4] = tested on: breast cancer patients who overexpress the HER2 growth factor receptor; conditions: cited from earlier work

Substance: trastuzumab [HERCEPTIN®]
- effect of HERCEPTIN® on cell growth ([1]; BTRes1 and BTRes2, HERCEPTIN® alone, 0-3 ug/ml): no effect
- 50% growth inhibition concentration of HERCEPTIN® ([1]; BTRes1 cells transfected with MUC1-specific siRNA): less than 0.01 ug/ml
- cell growth [2]: inhibited
- therapeutic effect of HERCEPTIN® [3]: no therapeutic effect
- patients acquiring resistance ([4]; HER2 metastatic breast cancer patients, within the first year of treatment): 25%
- patients responsive to treatment ([4]; of 42,000 HER2 overexpressing breast cancer patients): less than 35%
